Measurements as given in patent US7598253B2, “Reverse-turn mimetics and methods relating thereto” (Myriad Genetics, Inc., priority 1995, dated 2009).

Chains of the proteins cited; added tags and fusions are not shown. Lines headed by an entry give the natural chain unless they say otherwise; changes in a name come on top. Residues count along the entry.
UniProt A0A286XTF2, 1-366: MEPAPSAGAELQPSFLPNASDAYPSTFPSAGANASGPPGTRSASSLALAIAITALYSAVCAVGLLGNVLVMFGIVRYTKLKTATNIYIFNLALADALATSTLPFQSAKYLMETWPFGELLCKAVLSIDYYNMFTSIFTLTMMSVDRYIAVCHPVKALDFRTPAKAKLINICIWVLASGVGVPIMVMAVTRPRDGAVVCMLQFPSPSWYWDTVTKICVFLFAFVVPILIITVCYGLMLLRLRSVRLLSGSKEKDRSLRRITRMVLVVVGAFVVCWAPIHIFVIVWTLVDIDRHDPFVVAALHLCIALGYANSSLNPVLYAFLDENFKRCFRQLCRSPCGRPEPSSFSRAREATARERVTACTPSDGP
UniProt A0ACM8Q262, 1-400: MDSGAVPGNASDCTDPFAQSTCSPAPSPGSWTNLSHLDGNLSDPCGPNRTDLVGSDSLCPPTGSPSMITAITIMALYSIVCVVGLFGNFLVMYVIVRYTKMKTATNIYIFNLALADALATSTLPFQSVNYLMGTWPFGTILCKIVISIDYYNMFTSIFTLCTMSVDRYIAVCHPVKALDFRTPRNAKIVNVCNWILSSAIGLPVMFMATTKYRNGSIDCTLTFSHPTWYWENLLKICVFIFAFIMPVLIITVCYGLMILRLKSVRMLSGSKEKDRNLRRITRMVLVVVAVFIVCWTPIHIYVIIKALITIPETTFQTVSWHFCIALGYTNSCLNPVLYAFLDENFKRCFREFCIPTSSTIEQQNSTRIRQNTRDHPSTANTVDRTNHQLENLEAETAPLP

Legend:
[1] = molecular target: δ opiate receptor (Cavia porcellus, UniProt A0A286XTF2); test: Opiate (δ) binding, [3H]DPDPE competitive radioligand binding; parameters: species or system guinea pig
[2] = molecular target: μ opiate receptor (Cavia porcellus, UniProt A0ACM8Q262); format: binding, guinea pig

With (D-pen^3, D-pen^5) enkephalin [DPDPE] the IC50 [1] was 5.5 nM, the Ki [1] was 1.3 nM and the IC50 [2] was 4 nM. For the same substance, the Ki [2] was 0.37 nM.
